Measurements: ChEMBL document CHEMBL1148545, “New metabolically stable fatty acid amide ligands of cannabinoid receptors: Synthesis and receptor affinity studies” (Bioorg Med Chem Lett, 2006)

Amino acid sequences for entries named in this document (tags omitted).
UniProt P34972, whole entry: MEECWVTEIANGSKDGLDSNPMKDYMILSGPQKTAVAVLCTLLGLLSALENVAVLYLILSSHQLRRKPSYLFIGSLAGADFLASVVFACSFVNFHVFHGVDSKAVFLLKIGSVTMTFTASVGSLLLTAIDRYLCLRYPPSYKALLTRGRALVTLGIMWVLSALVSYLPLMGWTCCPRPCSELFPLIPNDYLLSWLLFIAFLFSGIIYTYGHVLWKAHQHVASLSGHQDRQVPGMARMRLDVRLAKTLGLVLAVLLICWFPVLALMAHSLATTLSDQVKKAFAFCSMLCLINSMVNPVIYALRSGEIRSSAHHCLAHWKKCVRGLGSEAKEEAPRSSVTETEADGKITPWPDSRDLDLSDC

Biological target: Cannabinoid receptor 2 (Homo sapiens, UniProt P34972)
Assay: Displacement of [3H]CP-55940 from human recombinant CB2 receptor

CCCCC/C=C\C/C=C\C/C=C\C/C=C\CCCC(=O)NCCO [ANANDAMIDE]
Ki: 180 nM
